Target: H1047R mutant of phosphatidylinositol 3-kinase (Homo sapiens, UniProt P42336, H1047R)
Settings: CEF, dose response

By UniProt entry, the sequences of proteins in these tests, tags left out.
UniProt P42336, whole entry H1047R: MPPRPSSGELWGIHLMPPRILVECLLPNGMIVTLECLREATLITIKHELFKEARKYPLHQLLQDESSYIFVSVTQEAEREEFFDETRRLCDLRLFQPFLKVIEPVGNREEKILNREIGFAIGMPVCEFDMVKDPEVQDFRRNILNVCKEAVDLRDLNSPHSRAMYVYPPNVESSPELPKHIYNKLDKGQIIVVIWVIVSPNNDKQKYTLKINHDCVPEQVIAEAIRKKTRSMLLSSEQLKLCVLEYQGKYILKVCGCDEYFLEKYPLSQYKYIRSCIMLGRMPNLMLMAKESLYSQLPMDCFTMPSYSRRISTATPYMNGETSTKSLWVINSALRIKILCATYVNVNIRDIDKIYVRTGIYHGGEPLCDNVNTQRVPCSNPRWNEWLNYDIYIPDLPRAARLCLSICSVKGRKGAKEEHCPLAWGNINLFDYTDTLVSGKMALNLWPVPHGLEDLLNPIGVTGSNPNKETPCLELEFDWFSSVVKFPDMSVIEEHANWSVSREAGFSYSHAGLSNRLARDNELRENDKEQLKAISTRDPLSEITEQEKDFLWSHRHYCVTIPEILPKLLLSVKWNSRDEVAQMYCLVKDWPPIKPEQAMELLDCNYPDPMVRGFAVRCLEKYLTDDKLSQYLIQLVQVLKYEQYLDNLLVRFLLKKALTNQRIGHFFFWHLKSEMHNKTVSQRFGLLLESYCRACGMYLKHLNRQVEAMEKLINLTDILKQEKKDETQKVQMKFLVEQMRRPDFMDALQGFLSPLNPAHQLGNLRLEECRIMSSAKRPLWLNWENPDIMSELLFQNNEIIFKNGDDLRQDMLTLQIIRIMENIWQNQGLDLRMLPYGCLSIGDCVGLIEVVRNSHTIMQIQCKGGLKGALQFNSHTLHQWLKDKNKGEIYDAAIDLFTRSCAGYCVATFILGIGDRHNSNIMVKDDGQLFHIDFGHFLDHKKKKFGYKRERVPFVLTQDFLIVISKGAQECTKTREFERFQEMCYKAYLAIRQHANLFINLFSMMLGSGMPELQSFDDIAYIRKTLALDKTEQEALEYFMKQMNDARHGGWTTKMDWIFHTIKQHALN

In the case of `NC(=O)c1ccc(-c2cc(-c3ccc([N+](=O)[O-])cc3)nc(-c3ccco3)c2)cc1` [CG-RS-44, 4-(2-(furan-2-yl)-6-(4-nitrophenyl)pyridin-4-yl)benzamide], the “Inhibition of oncogenic transformation by PI3K H1047R” value was “inhibited at significantly higher concentrations”.

Source: patent US11066398B2, “Small molecule c-Myc inhibitors” (THE SCRIPPS RESEARCH INSTITUTE, priority 2013, dated 2021)
